PubChem BioAssay (NCATS)
Only a part is listed here, and it is no random draw. Inconclusive results are not listed. Some salts and complexes are drawn in separate pieces, as the source files them; their charges need not balance. The source made the active and inactive calls. Unless noted, calls follow the shape of the dose curve; as a rule, active = well fitted curve in the direction sought with a large enough effect; inconclusive = small, poorly fitted or top-dose-only effect, or another doubt; inactive = no such curve, though single readings can be large; an effect the other way counts as inactive or inconclusive.

Protein sequences, listed by entry. Tags and fused reporters are not part of them.
UniProt O75469, whole entry: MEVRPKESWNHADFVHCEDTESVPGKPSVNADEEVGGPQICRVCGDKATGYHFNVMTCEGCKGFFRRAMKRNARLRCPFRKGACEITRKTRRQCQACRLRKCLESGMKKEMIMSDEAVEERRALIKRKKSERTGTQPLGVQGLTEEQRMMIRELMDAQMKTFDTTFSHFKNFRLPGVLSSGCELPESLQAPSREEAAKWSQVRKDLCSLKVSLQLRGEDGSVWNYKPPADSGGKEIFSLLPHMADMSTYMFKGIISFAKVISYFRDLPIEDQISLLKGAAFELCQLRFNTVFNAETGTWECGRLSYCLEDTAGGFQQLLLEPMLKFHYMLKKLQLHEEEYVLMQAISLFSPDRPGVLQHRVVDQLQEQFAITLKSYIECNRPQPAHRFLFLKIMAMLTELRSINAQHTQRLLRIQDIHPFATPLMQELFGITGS

Legend:
HEK293 = assay: Cytotoxic Profiling of Annotated Libraries Using Quantitative High-Throughput Screening (AID 1296008); details: Five cell lines viability, CellTiter-Glo ATP luminescence, 48-72 h, active compounds read low; also: nearly all actives have a fitted effect of over 60% in size; as to max response: % is scaled to controls: 0 for no effect and ±100 for the full control effect
Method in brief: (§1)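 Compounds were pin-transferred onto cells and incubated 48 or 72 hr at 37 degree Celsius, 95% humidity. CellTiter-Glo was added, plates sat 10 min at room temperature, then ATP-coupled luminescence was imaged as the viability read-out.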

HaCat [1] = assay: as above; details: Five cell lines viability, CellTiter-Glo ATP luminescence, 48-72 h; active compounds read low
Method in brief: as §1

KB-3-1 = assay: as above; details: Five cell lines viability, CellTiter-Glo ATP luminescence, 48-72 h; active compounds read low
Method in brief: as §1

NIH3T3 = assay: as above; details: Five cell lines viability, CellTiter-Glo ATP luminescence, 48-72 h; active compounds read low
Method in brief: as §1

C33A = assay: Primary qHTS to identify gynecologic anti-cancer compounds using libraries of approved drugs and bioactive compounds (AID 1345084); details: Gynecologic cancer cell panel viability, ATPlite luminescence, 48 h; at 57.5 µM (top of the series) unless noted; also: % is scaled to controls: 0 for no effect and ±100 for the full control effect; nearly all actives have a fitted effect of over 55% in size
Method in brief: (§2)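 ATP-based viability (ATPlite), 1,000 cells/well, 16 h pre-incubation, 48 h compound at 37 C, 5% CO2, 15 min RT before read.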

CAOV3 = assay: as above; details: Gynecologic cancer cell panel viability, ATPlite luminescence, 48 h; at 57.5 µM (top of the series) unless noted
Method in brief: as §2

CASKI = assay: as above; details: Gynecologic cancer cell panel viability, ATPlite luminescence, 48 h; at 57.5 µM (top of the series) unless noted
Method in brief: as §2

HeLa = assay: as above; details: Gynecologic cancer cell panel viability, ATPlite luminescence, 48 h; at 57.5 µM (top of the series) unless noted
Method in brief: as §2

CRL-7250 [2] = assay: Cytotoxic Profiling of Annotated Libraries Using Quantitative High-Throughput Screening (AID 1296008); details: Five cell lines viability, CellTiter-Glo ATP luminescence, 48-72 h; active compounds read low; also: nearly all actives have a fitted effect of over 60% in size; as to max response: % is scaled to controls: 0 for no effect and ±100 for the full control effect
Method in brief: as §1

HACAT [3] = assay: qHTS assay to identify novel small-molecules to repurpose for Merkel cell carcinoma treatment (AID 1296009); details: MCC and control cell lines, CellTiter-Glo viability, 72 h; at 92 µM (top of the series) unless noted; also: nearly all actives have a fitted effect of over 60% in size; as to activity change, negative = cytotoxicity: % is scaled to controls: 0 for no effect and ±100 for the full control effect
Method in brief: (§3)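 Cells exposed to NPC (8-point) and MIPE (11-point) compound dilutions for 72 hr at 37 degree celsius; viability read by CellTiter-Glo luminescence, normalized to no-cell and DMSO in-plate controls.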

MCC-13 = assay: as above; details: MCC and control cell lines, CellTiter-Glo viability, 72 h; at 92.7 µM (top of the series)
Method in brief: as §3

MCC-26 = assay: as above; details: MCC and control cell lines, CellTiter-Glo viability, 72 h; at 92.7 µM (top of the series)
Method in brief: as §3

MKL-1 = assay: as above; details: MCC and control cell lines, CellTiter-Glo viability, 72 h; at 92.7 µM (top of the series)
Method in brief: as §3

MKL-2 = assay: as above; details: MCC and control cell lines, CellTiter-Glo viability, 72 h; at 92.7 µM (top of the series)
Method in brief: as §3

UISO = assay: as above; details: MCC and control cell lines, CellTiter-Glo viability, 72 h; at 92.7 µM (top of the series)
Method in brief: as §3

WaGa = assay: as above; details: MCC and control cell lines, CellTiter-Glo viability, 72 h; at 92.7 µM (top of the series)
Method in brief: as §3

Es-2 = assay: Primary qHTS to identify gynecologic anti-cancer compounds using libraries of approved drugs and bioactive compounds (AID 1345084); details: Gynecologic cancer cell panel viability, ATPlite luminescence, 48 h; at 57.5 µM (top of the series) unless noted; also: % is scaled to controls: 0 for no effect and ±100 for the full control effect; nearly all actives have a fitted effect of over 55% in size
Method in brief: as §2

[4] = qHTS drug screen for cell cycle checkpoint inhibitors in PARPi-resistant BRCA-mutant ovarian cancer cell lines. (AID 1963452; calls by dose curve); details: PEO1/OlaR viability, CellTiter-Glo luminescence, 96 h; active compounds read low
Method in brief: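 PEO1, PEO4 and PEO1/OlaR ovarian cancer cells, 600 per well, exposed 96 h at 37C to a dilution series. Viability read by CellTiter-Glo luminescence, normalized to DMSO and empty wells; activity summarized as Z-AUC.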

CRL-7250 [5] = assay: qHTS assay to identify novel small-molecules to repurpose for Merkel cell carcinoma treatment (AID 1296009); details: MCC and control cell lines, CellTiter-Glo viability, 72 h; at 17.4 µM (top of the series); also: nearly all actives have a fitted effect of over 60% in size; as to activity change, negative = cytotoxicity: % is scaled to controls: 0 for no effect and ±100 for the full control effect
Method in brief: as §3

[6] = target: Nuclear receptor subfamily 1 group I member 2 (Homo sapiens) (UniProt O75469); assay: Dual reporter qHTS for antagonist of Pregnane X Receptor (hPXR) against the NCATS DSHEA and TCM libraries: Luminescence Readout (AID 1920060); details: hPXR dual reporter cells, luciferase luminescence, antagonist mode; at 40 µM (top of the series);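 also: HepG2 cells carrying hPXR luciferase reporter stimulated with rifampicin at 2 µM; 0% is about no effect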
Method in brief: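 In antagonist mode, 2 uM rifampicin was added to hPXR-Luc HepG2 cells alongside test substances, incubated 24 h at 37 C; luminescence gave reporter activity, and CellTiter-Fluor fluorescence (405/540 nm) gave viability.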

O=[N+]([O-])c1cccc([N+](=O)[O-])c1
inactive: max response (HEK293) 3.19% | max response (HaCat [1]) -1.95% | max response (KB-3-1) -1.67% | max response (NIH3T3) -5.54% | activity change, negative = cytotoxicity (C33A) 1.34% [at 116 µM] | activity change, negative = cytotoxicity (CAOV3) 5.36% [at 116 µM] | activity change, negative = cytotoxicity (CASKI) -0.402% [at 116 µM] | activity change, negative = cytotoxicity (HeLa) 1.81% [at 116 µM]

CCOP(=O)(CC)Oc1ccc([N+](=O)[O-])cc1 (stereo unspecified)
inactive: max response (CRL-7250 [2]) -21.6% | max response (HaCat [1]) -3.12% | outcome (KB-3-1) | max response (NIH3T3) -7.33% | activity change, negative = cytotoxicity (C33A) 4.46% | activity change, negative = cytotoxicity (CAOV3) 18.2% | activity change, negative = cytotoxicity (CASKI) -3.74% | activity change, negative = cytotoxicity (HeLa) -20.3%

Cc1cccc([N+](=O)[O-])c1[N+](=O)[O-]
inactive: max response (CRL-7250 [2]) -4.04% | max response (HEK293) 0.892% | outcome (HaCat [1]) | max response (KB-3-1) -16.9% | max response (NIH3T3) -8.9% | outcome (HACAT [3]) | activity change, negative = cytotoxicity (MCC-13) 4.39% | activity change, negative = cytotoxicity (MCC-26) 16% | activity change, negative = cytotoxicity (MKL-1) 1.62% | activity change, negative = cytotoxicity (MKL-2) 3.99% | activity change, negative = cytotoxicity (UISO) 13.2% | activity change, negative = cytotoxicity (WaGa) -6.76% | activity change, negative = cytotoxicity (C33A) 0.498% | activity change, negative = cytotoxicity (CAOV3) -4.26% | activity change, negative = cytotoxicity (CASKI) 0.961% | activity change, negative = cytotoxicity (Es-2) 8.7% | activity change, negative = cytotoxicity (HeLa) 16.3%

C/C1=C2/N=C(C(CC(N)=O)C2(C)CCC(=O)NCC(C)OP(=O)([O-])OC2C(CO)OC(n3cnc4cc(C)c(C)cc43)C2O)C2(C)N=C(/C(C)=C3N=C(/C=C4N=C1C(CCC(N)=O)C\4(C)C)C(CCC(N)=O)C/3(C)CC(N)=O)C(CCC(N)=O)C2(C)CC(N)=O.[C-]#N.[Co] (stereo unspecified)
inactive: Z-AUC [4] 1.4

O=[N+]([O-])[O-].[NH4+]
inactive: max response (KB-3-1) 4.57%

C/C1=C2N=C(/C=C3N=C(/C(C)=C4\N=C(C(CC(N)=O)C4(C)CCC(=O)NCC(C)OP(=O)([O-])OC4C(CO)OC(n5cnc6cc(C)c(C)cc65)C4O)C4(C)N=C1C(CCC(N)=O)C4(C)CC(N)=O)C(CCC(N)=O)C\3(C)C)C(CCC(N)=O)C/2(C)CC(N)=O.[C-]#N.[Co] (stereo unspecified)
inactive: outcome (CRL-7250 [2]) | outcome (HaCat [1]) | max response (KB-3-1) -7.72% | max response (NIH3T3) 0.696% | outcome (CRL-7250 [5]) | outcome (HACAT [3]) inactive [at 17.4 µM] | activity change, negative = cytotoxicity (C33A) 7.92% [at 25.3 µM] | activity change, negative = cytotoxicity (CAOV3) 6.77% [at 25.3 µM] | activity change, negative = cytotoxicity (CASKI) 2.99% [at 25.3 µM] | activity change, negative = cytotoxicity (Es-2) 6.01% [at 25.3 µM] | activity change, negative = cytotoxicity (HeLa) -13.3% [at 25.3 µM]

O=[N+]([O-])OCC(CO[N+](=O)[O-])(CO[N+](=O)[O-])CO[N+](=O)[O-]
inactive: max response (KB-3-1) 7.35%

CN(C)CCS
inactive: max response (KB-3-1) 12.9%

OCCSCCO
inactive: max response (CRL-7250 [2]) 2.1% | max response (HEK293) 3.7% | outcome (HaCat [1]) | max response (KB-3-1) 3.94% | outcome (NIH3T3) | activity change, negative = cytotoxicity (C33A) -3.82% | activity change, negative = cytotoxicity (CAOV3) -1.09% | activity change, negative = cytotoxicity (CASKI) 1.45% | activity change, negative = cytotoxicity (Es-2) -4.39% | activity change, negative = cytotoxicity (HeLa) 14.2%

C/C1=C2N=C(/C=C3N=C(/C(C)=C4\[N-][C@@](C)([C@@H]5N=C1[C@](C)(CCC(=O)NC[C@@H](C)OP(=O)([O-])O[C@H]1[C@@H](O)[C@@H](n6cnc7cc(C)c(C)cc76)O[C@@H]1CO)[C@H]5CC(N)=O)[C@@](C)(CC(N)=O)[C@@H]4CCC(N)=O)[C@@](C)(CC(N)=O)[C@@H]\3CCC(N)=O)C(C)(C)[C@@H]/2CCC(N)=O.[C-]#N.[Co+3]
inactive: activity change, negative = inhibition [6] -11.2% | activity change, negative = cytotoxicity (C33A) -16.2% | activity change, negative = cytotoxicity (CAOV3) -18.5% | activity change, negative = cytotoxicity (CASKI) -26.7% | activity change, negative = cytotoxicity (Es-2) -25.2% | activity change, negative = cytotoxicity (HeLa) -11.4%

CC(C)N(CCCl)C(C)C
inactive: max response (KB-3-1) -14.2%

CC(C)OP(=O)(F)OC(C)C
inactive: max response (KB-3-1) 2.85%
